Literature values as cited in PMC8675232, “Reduction in C-Peptide Levels and Influence on Pharmacokinetics and Pharmacodynamics of Insulin Preparations: How to Conduct a High-Quality Euglycemic Clamp Study” (Frontiers in Pharmacology, 2021).

Legend:
[1] = ref Yaribeygi et al., 2019; cited from earlier work
[2] = in circulation; ref Hoekstra et al., 1982; Jones and Hattersley, 2013; cited from earlier work

**Q.** Which “part extracted by the liver before reaching the peripheral circulation” value [1] does the source give for insulin here?
**A.** approximately 50%

**Q.** And the half-life [2]?
**A.** 3 to 5 min
